Test results from US10023575B2, “Cyclic ether derivatives of pyrazolo[1,5-a]pyrimidine-3-carboxyamide” (Boehringer Ingelheim International GmbH, priority 2015, dated 2018).

Sequences of proteins named here, by UniProt entry; tags and fusion partners are left off. A change or cut given only in a name is not applied to a line headed by its entry.
UniProt Q9Y233: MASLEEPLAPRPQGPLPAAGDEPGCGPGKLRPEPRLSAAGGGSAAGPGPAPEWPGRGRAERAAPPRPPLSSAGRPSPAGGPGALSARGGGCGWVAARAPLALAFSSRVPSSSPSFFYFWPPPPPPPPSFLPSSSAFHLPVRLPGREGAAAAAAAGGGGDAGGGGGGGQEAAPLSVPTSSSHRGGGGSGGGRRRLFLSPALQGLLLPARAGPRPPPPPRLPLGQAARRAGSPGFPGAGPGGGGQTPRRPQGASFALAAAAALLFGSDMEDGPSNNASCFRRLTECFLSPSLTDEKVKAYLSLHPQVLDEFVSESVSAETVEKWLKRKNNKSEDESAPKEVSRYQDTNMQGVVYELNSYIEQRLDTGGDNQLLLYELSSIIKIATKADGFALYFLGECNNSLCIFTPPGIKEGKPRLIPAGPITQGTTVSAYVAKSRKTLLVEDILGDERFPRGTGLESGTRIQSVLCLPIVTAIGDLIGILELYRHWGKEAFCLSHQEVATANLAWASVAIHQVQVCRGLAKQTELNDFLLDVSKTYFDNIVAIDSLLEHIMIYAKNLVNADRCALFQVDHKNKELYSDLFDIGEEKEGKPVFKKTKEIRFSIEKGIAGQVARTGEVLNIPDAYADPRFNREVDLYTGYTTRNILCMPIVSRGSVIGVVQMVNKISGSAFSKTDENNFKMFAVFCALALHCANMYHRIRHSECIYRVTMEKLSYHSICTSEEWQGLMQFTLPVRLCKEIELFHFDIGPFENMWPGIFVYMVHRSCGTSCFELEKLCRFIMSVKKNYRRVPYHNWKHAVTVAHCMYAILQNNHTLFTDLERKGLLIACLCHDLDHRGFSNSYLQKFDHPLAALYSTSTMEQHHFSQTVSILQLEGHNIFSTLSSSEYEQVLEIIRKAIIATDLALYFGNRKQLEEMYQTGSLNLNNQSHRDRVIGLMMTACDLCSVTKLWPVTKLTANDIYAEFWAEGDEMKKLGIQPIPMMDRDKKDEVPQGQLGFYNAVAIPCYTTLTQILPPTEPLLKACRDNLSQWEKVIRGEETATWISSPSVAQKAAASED

Biological target: PDE10 (Homo sapiens (Human), UniProt Q9Y233)
Test: Phosphodiesterase (PDE) 10 assay with fluorescent substrate (IMAP, fluorescence polarization)
Type: biochemical
Conditions: labeled cAMP 30 nM
From the text: a) Phosphodiesterase (PDE) 2A and 10 Assay with Fluorescent Substrate
The PDE reaction cleaves cAMP to AMP. The IMAP system (Molecular Device) using fluorescence polarization (FP) as detection principle was used to measure enzyme activity. A fluorescent labeled cAMP was used as substrate for the reaction, generating a labeled AMP. The fluorescent AMP binds specifically to the large M(III)-based nano-particles which reduces the rotational speed of the substrate and thus increases its polarization.
The inhibition of PDE 2A or 10 enzyme activity was assessed using IMAP-Phosphodiesterase-cAMP fluorescence labeled substrate (Molecular Devices, Order No. R7506), IMAP TR-FRET screening express (Molecular Devices, Order No. R8160, the TR-FRET component will not be used) and PDE 2A or PDE10 protein expressed upon baculovirus infection in SF9 cells. The cells were incubated after infection for ˜3 days and protein production was confirmed by Western Blot. […]
Compounds were serial diluted in DMSO. […] After at least 90 min of further incubation (room temperature, dark) the assay was measured at 485 nm excitation/525 nm emission in an Envision multilabel reader (PerkinElmer). […]
IC50 values are calculated with Assay Explorer or other suited software based on curve fitting of results of at least 8 different compound concentrations. […]

CC1(O)COCCC1(NC(=O)c1cnn2cc(C3CC3)cnc12)c1ccc(C(F)(F)F)cc1F (stereo not shown) [Example 54]
IC50: 9.67 µM
